Test system: HeLa
Assay: Cytotoxicity against human HeLa cells assessed as reduction in cell viability measured after 48 hrs by MTT assay
Format: functional, cell-based

Question: With `CO[C@H]1[C@H](O[C@@H]2C[C@@H]3C/C=C/C(=O)O[C@H](CO)C[C@H](O)[C@@H]4C[C@H](C)[C@H](C/C=C\C=C\[C@H](C)C[C@H](C2)O3)O4)O[C@@H](C)[C@H](O)[C@H]1O` as the molecule, how does the Activity read?
Answer: Dose-dependent effect

From ChEMBL document CHEMBL4028855, “New Mandelalides Expand a Macrolide Series of Mitochondrial Inhibitors” (J Med Chem, 2017)
